From patent US9340530B2, “Preparation and use of bicyclic himbacine derivatives as PAR-1 receptor antagonists” (Merck, Sharp & Dohme Corp., priority 2012, dated 2016)

Protein sequences, listed by entry. Tags and fused reporters are not part of them. Residues count along the entry.
UniProt P25116, 22-425 limits assumed: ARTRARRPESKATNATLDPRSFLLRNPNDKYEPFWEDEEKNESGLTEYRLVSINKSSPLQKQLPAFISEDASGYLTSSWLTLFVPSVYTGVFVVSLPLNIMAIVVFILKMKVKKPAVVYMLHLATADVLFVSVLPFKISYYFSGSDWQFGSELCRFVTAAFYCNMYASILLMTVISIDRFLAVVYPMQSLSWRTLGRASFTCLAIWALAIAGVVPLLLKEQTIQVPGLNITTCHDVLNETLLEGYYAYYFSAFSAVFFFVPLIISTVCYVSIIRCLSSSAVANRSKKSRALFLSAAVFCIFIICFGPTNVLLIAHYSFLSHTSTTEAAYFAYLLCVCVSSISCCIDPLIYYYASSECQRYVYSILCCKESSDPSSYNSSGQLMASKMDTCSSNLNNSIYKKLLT

Target: PAR1 (Homo sapiens (Human), UniProt P25116)
Experiment: Par-1 FLIPR assay (calcium, HEK 293 cells, PAR1 activating peptide)
Type: cell-based
Settings: read-out: Par-1 FLIPR IC50, PAR1 selective receptor-activating peptide at 80% activation

IC50 [nM]	SMILES
9.7	C[C@H]1OC(=O)[C@]2(n3cc(-c4ccc(N(C)C)cc4)nn3)CC(F)(F)[C@@H](C)[C@H](/C=C/c3ccc(-c4ccccc4C#N)cn3)[C@H]12
4.3	C[C@H]1OC(=O)[C@]2(n3ccnc3)CC(F)(F)[C@@H](C)[C@H](/C=C/c3ccc(-c4ccccc4C#N)cn3)[C@H]12

SMILES	IC50 [nM]
C[C@H]1OC(=O)[C@]2(n3ccnn3)CC(F)(F)[C@@H](C)[C@H](/C=C/c3ccc(-c4ccccc4C#N)cn3)[C@H]12	3.1
